Measurements: patent US5693476 (The Board of Trustees of the Leland Stanford Junior …, dated 1997)
Each block holds one binder with its values, some of them ahead of it.

Legend:
[1] = molecular target: T1, syntaxin 1A carboxyl-terminal domain (amino acids 194-267), soluble recombinant (rat); assay: SPR competition: inhibition of the binding of the carboxyl-terminal domain (5.5 µM) to immobilized VAMP 2 cytoplasmic domain, FIG. 10A
T1 chain: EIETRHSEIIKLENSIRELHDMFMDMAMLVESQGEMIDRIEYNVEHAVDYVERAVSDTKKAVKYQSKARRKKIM

[2] = molecular target: GST (glutathione-S-transferase) alone, immobilized on glutathione agarose beads (Schistosoma japonicum, UniProt P08515 = GST); assay: 20S complex assembly control on GST beads, Western blot (FIG. 6A)

IC50 [1]: ~3 µM
B1: syntaxin 1A amino-terminal domain (amino acids 4-193), recombinant (other)
chain: RTQELRTAKDSDDDDDVTVTVDRDRFMDEFFEQVEEIRGFIDKIAENVEEVKRKHSAILASPNPDEKTKEELEELMSDIKKTANKVRSKLKSIEQSIEQEEGLNRSSADLRIRKTQHSTLSRKFVEVMSEYNATQSDYRERCKGRIQRQLEITGRTTTSEELEDMLESGNPAIFASGIIMDSSISKQALS

binding result [2]: no binding (tested: 2 µM)
B2: VAMP (vesicle-associated membrane protein; VAMP 2), soluble recombinant (other)
chain: not shown
